Data from patent US20260152502A1, “PIPERIDINYL-METHYL-PURINE AMINE SALTS, CRYSTALLINE FORMS, AND THEIR USE IN TREATING MEDICAL DISEASES AND CONDITIONS” (K36 THERAPEUTICS, INC., priority 2022, published 2026).

Experiment: water solubility of the crystalline solid
Assay type: physicochemical
Conditions: for water solubility (mg/mL of the free base (S)-1-((R)-3-amino-1-(...)piperidin-3-yl)-2,2-difluoroethan-1-ol): pH 7.0 (phosphate buffer), 37° C.; for water solubility: pH 6.8, 37° C.

Substance | water solubility (mg/mL of the free base (S)-1-((R)-3-amino-1-(...)piperidin-3-yl)-2,2-difluoroethan-1-ol) (after 30 minutes) | water solubility (after 30 minutes) | water solubility (after 24 hours)
Benzenesulfonic Acid Salt of (S)-1-((R)-3-amino-1-(4-((6-amino-9H-purin-9-yl)methyl)-6-(2,5-difluoro-4-methoxyphenyl)pyridin-3-yl)piperidin-3-yl)-2,2-difluoroethan-1-ol [Example 2] | 1.49 mg/mL |  | 
D-Gluconic Acid Salt of (S)-1-((R)-3-amino-1-(4-((6-amino-9H-purin-9-yl)methyl)-6-(2,5-difluoro-4-methoxyphenyl)pyridin-3-yl)piperidin-3-yl)-2,2-difluoroethan-1-ol [Example 7] | 0.53 mg/mL |  | 
L-Aspartic Acid Salt of (S)-1-((R)-3-amino-1-(4-((6-amino-9H-purin-9-yl)methyl)-6-(2,5-difluoro-4-methoxyphenyl)pyridin-3-yl)piperidin-3-yl)-2,2-difluoroethan-1-ol [Example 11] | 0.98 mg/mL |  | 
Maleic Acid Salt of (S)-1-((R)-3-amino-1-(4-((6-amino-9H-purin-9-yl)methyl)-6-(2,5-difluoro-4-methoxyphenyl)pyridin-3-yl)piperidin-3-yl)-2,2-difluoroethan-1-ol [Example 1] |  | 870 µg/mL | > 2000 µg/mL
Phosphoric Acid Salt of (S)-1-((R)-3-amino-1-(4-((6-amino-9H-purin-9-yl)methyl)-6-(2,5-difluoro-4-methoxyphenyl)pyridin-3-yl)piperidin-3-yl)-2,2-difluoroethan-1-ol [Example 9] | > 2.0 mg/mL |  | 
Phosphoric Acid Salt of (S)-1-((R)-3-amino-1-(4-((6-amino-9H-purin-9-yl)methyl)-6-(2,5-difluoro-4-methoxyphenyl)pyridin-3-yl)piperidin-3-yl)-2,2-difluoroethan-1-ol [Example 10] | 0.28 mg/mL |  | 
